Reference: publication PMC4501791, “Molecular Design, Synthesis and Trypanocidal Activity of Dipeptidyl Nitriles as Cruzain Inhibitors” (PLoS Neglected Tropical Diseases, 2015)

Amino acid sequences for entries named in this document (tags omitted). Residues count along the entry.
UniProt P25779, 123-337 limits assumed: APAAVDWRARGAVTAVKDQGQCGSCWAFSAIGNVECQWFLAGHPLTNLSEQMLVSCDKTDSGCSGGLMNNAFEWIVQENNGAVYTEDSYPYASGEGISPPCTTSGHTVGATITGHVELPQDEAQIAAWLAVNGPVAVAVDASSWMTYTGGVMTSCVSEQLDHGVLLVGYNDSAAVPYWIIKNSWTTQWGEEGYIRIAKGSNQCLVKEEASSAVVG

Biological target: cruzain (Trypanosoma cruzi, UniProt P25779)
Settings: 37°C, pH 5.5, substrate Z-FR-AMC
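Also: fluorometric read-out of substrate hydrolysis at excitation 355 nm and emission 460 nm, initial rates over 5 min, Ki from nonlinear kinetic fits, duplicate runs.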

N#CCNC(=O)[C@@H](Cc1ccccc1)NC(=O)c1ccccc1
pKi: 5.2
